The values below are quoted from earlier work in patent publication US9295653B2, “Controlled agglomeration” (Veloxis Pharmaceuticals A/S, priority 2001, dated 2016).

This is a selection: effects in other tests are not listed, and their absence says nothing.

For the data set the following is noted: Table 1, Poorly-Soluble Drug Candidates; descriptive term.

On to `CCC(=O)N(c1ccccc1)C1CCN(CCc2ccccc2)CC1`, for which the “Solubility In Water” value was “Sparingly”.
